The values below are quoted from earlier work in patent publication US6599541B1, “Composition for treatment of drug resistant bacterial infections and a method of treating drug resistant bacterial infections” (priority 1999, dated 2003).

The conditions of the series: highest serum concentration reached after the maximum therapeutic dose in-vivo; cited from earlier work.

Take Co-trimoxazole: the break point is given as 4/76.
